Reference: patent US20230366033A1 (University of Texas, published 2023)

Molecular target: T1, RPA70, endogenous, in HEK293T cell extracts
T1 construct: also called RPA1
Experiment: GST pull-down from HEK293T cell extracts, western blot [panel B]

binding result: no binding
B1: GST-fused GRB2 SH2 domain (other, UniProt P62993 60-152, looked up)
chain: WFFGKIPRAKAEEMLSKQRHDGAFLIRESESAPGDFSLSVKFGNDVQHFKVLRDGAGKYFLWVVKFNSLNELVDYHRSTSVSRNQQIFLRDIE
notes: domain: SH2; also called GST-SH domains; not shown: glutathione S-transferase (GST)
